Measured values as given in ChEMBL document CHEMBL5727553.

Protein sequences, listed by entry. Tags and fused reporters are not part of them. Residues count along the entry.
UniProt P54289, 25-956 limits assumed: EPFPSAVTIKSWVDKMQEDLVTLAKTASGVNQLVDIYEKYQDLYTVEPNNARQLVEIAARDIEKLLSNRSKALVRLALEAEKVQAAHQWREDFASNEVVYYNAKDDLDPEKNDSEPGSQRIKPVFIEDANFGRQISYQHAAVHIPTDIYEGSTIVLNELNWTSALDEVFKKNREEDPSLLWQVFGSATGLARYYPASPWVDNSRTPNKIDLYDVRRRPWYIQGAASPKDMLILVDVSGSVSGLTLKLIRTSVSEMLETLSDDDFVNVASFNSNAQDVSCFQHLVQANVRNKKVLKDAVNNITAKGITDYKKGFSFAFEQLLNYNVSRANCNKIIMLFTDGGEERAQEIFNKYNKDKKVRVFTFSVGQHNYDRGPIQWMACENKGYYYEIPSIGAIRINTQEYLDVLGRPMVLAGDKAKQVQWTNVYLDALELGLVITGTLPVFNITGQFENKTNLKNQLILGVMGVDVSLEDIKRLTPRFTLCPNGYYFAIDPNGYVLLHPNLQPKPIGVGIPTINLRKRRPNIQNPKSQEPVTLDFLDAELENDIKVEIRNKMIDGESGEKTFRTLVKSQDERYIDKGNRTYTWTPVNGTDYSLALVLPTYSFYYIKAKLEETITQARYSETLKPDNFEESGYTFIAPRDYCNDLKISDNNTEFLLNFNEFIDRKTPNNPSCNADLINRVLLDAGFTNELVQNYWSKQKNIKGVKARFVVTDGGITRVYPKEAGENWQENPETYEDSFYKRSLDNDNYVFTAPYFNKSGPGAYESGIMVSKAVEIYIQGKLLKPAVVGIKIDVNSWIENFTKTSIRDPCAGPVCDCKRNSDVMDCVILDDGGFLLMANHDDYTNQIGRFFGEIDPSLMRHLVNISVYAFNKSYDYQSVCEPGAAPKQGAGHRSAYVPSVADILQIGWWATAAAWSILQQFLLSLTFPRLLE
UniProt P54289, 957-1103 limits assumed: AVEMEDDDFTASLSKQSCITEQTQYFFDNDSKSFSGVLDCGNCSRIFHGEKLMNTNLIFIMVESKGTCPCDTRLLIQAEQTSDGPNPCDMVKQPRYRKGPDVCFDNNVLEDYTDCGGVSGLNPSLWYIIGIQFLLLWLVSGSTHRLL
UniProt P35372, whole entry: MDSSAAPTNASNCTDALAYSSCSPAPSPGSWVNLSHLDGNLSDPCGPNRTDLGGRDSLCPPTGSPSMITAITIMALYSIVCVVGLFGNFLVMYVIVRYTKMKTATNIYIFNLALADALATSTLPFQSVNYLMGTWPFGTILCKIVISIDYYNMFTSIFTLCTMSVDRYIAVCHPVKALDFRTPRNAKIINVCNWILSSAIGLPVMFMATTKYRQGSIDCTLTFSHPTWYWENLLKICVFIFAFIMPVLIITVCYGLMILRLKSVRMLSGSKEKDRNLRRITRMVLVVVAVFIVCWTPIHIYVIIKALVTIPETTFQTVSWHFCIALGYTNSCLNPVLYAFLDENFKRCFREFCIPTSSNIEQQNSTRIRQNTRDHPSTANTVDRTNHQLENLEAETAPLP

How the values were obtained:
[1] = target: Voltage-dependent calcium channel subunit alpha-2/delta-1 (Homo sapiens, UniProt P54289)
Mu-type opioid receptor = Mu-type opioid receptor (Homo sapiens, UniProt P35372); test: Human mu-Opioid Receptor Radioligand Assay: To investigate binding properties of test compounds to human μ-opioid receptor, transfected CHO-K1 cell membranes and [3H]-DAMGO (Perkin Elmer, ES-542-C), as the radioligand, were used. The assay was carried out with 20 μg of membrane suspension, 1 nM of [3H]-DAMGO in either absence or presence of either buffer or 10 μM Naloxone for total and non-specifi

Compound | Ki [1] [nM] | Ki (Mu-type opioid receptor) [nM]
O=C(c1cccs1)N(c1cncc(-c2ccc(F)cc2)n1)C1CCNCC1 | > 5000 | > 500
CN(CCN(C(=O)c1cccs1)c1ccn(-c2ccccc2)n1)Cc1ccccn1 | – | 100 to 500
